ChEMBL document CHEMBL1275511, “Molecular and biochemical characterization of SHV-56, a novel inhibitor-resistant beta-lactamase from Klebsiella pneumoniae” (Antimicrob Agents Chemother, 2008)

How the values were obtained:
Conditions in all cases: JM109
Escherichia coli [1] = assay: Activity of Escherichia coli Inhibitor-resistant beta-lactamase SHV-56
Escherichia coli [2] = assay: Ratio of Kcat to Km for Escherichia coli Inhibitor-resistant beta-lactamase SHV-56
[3] = substrate: CC1(C)S[C@@H]2[C@H](NC(=O)Cc3ccccc3)C(=O)N2[C@H]1C(=O)O; assay: (§1) Activity of Escherichia coli beta-lactamase SHV-11
[4] = substrate: CC1(C)S[C@@H]2[C@H](NC(=O)[C@H](C(=O)O)c3ccsc3)C(=O)N2[C@H]1C(=O)O; assay: as §1

Molecule	Km (Escherichia coli [1]) [µM]	kcat (Escherichia coli [1]) [s⁻¹]	kcat/Km (Escherichia coli [2]) [M⁻¹ s⁻¹]	Km [3] [µM]	kcat [3] [s⁻¹]	kcat [4] [s⁻¹]
CC1(C)S[C@@H]2[C@H](NC(=O)Cc3ccccc3)C(=O)N2[C@H]1C(=O)O	40	60	1.5e+06			
Beta-lactamase SHV-11 (Escherichia coli), Q7X575 (protein) MRYIRLCIISLLATLPLAVHASPQPLEQIKQSESQLSGRVGMIEMDLASGRTLTAWRADERFPMMSTFKVVLCGAVLARVDAGDEQLERKIHYRQQDLVDYSPVSEKHLADGMTVGELCAAAITMSDNSAANLLLATVGGPAGLTAFLRQIGDNVTRLDRWETELNEALPGDARDTTTPASMAATLRKLLTSQRLSARSQRQLLQWMVDDRVAGPLIRSVLPAGWFIADKTGAGERGARGIVALLGPNNKAERIVVIYLRDTPASMAERNQQIAGIGAALIEHWQR				20	40	2
